According to PubChem BioAssay AID651821 (The Scripps Research Institute Molecular Screening Center, 2012):
Only a part is listed here, and it is no random draw. Some salts or complexes appear as unconnected parts, following the source record. Calls of active or inactive are those of the source.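 The calls were made as follows: active = inhibition above the plate cutoff, the mean of all test compounds on that plate plus 3 SD (cut at about 35% in these data); inactive = the rest.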

assay: binders of r(CAG) RNA repeats, primary screen, biochemical, fluorescence (AID 651821); settings: r(CAG) RNA repeat, TO-PRO-1 dye displacement fluorescence; at 3 µM; stronger effect = higher value;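 also: 0% = DMSO alone and 100% = 100 µM mitoxantrone as full dye displacement; higher means more dye released from RNA so lower well fluorescence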

SMILES | inhibition
O=C1C(O)=C([N+](=O)[O-])C(=O)C(O)=C1[N+](=O)[O-] | inactive: 4.73%
Cc1cc(C)cc(OP(C)(=O)Nc2cccc(C(F)(F)F)c2)c1 (centres undefined) | inactive: -5.8%
COc1ccccc1OP(C)(=O)Nc1ccc(C)c(C)c1 (centres undefined) | inactive: -2.12%
COc1ccc(OP(C)(=O)Nc2ccccc2Br)cc1 (centres undefined) | inactive: -6.11%
CP(=O)(OCCOc1ccccc1)OCCOc1ccccc1 | inactive: -5.59%
CCCCCCCCCCCCCCCC1C[N+](C)(C)CCOP(C)(=O)O1 (centres undefined) | inactive: 9.71%
CP(=O)(Nc1ccc(Cl)cc1Cl)Oc1ccccc1 (centres undefined) | inactive: -8.73%
COc1ccccc1OP(C)(=O)Nc1ccc(Br)cc1 (centres undefined) | inactive: -4.41%
COc1ccc(OP(C)(=O)Nc2ccccn2)cc1 (centres undefined) | inactive: -3.21%
CN(C)CCOC(=O)C(O)(c1ccccc1)C1CCCC1 (centres undefined) | inactive: -3.24%
O=[N+]([O-])c1cc([N+](=O)[O-])c(Nc2ccccn2)c([N+](=O)[O-])c1 | inactive: -1.08%
Cc1c(NP(C)(=O)Oc2ccc(C(C)C)cc2)c(=O)n(-c2ccccc2)n1C (centres undefined) | inactive: -6.58%
CP(=O)(Nc1ccccn1)Oc1ccccc1 (centres undefined) | inactive: -2.47%
COc1ccccc1OP(C)(=O)Nc1ccc(C)cc1C (centres undefined) | inactive: -5.44%
CCc1ccc(OP(C)(=O)O)cc1 | inactive: -1.42%
CCN(CC)CC(O)COC(=O)C(O)(c1ccccc1)C1CCCCC1 (centres undefined) | inactive: -1.45%
COc1ccc(OP(C)(=O)Nc2ccc(Br)cc2)cc1 (centres undefined) | inactive: -4.19%
COc1ccccc1OP(C)(=O)Nc1c(C)n(C)n(-c2ccccc2)c1=O (centres undefined) | inactive: -4.4%
O=C(OCCCN1CCCC1)C(O)(c1ccccc1)C1CCCCC1 (centres undefined) | inactive: -5.45%
CP(=O)(Oc1ccccc1)N1CCOC1=O (centres undefined) | inactive: 4.58%
CCc1ccc(OP(C)(=O)Nc2cccnc2)cc1 (centres undefined) | inactive: -5.97%
CC(C)(C)c1ccc(OP(C)(=O)O)cc1 | inactive: 0.08%
COc1ccccc1OP(C)(=O)Nc1ccccc1Br (centres undefined) | inactive: -4.44%
CP(=O)(Nc1ccc(Cl)cc1)Oc1ccc(F)cc1 (centres undefined) | inactive: -1.96%
CN(C)C(=O)c1c([N+](=O)[O-])cc([N+](=O)[O-])cc1[N+](=O)[O-] | inactive: 1.24%

SMILES | inhibition
Nc1ccc2c(ccc3cccnc32)n1.O=[N+]([O-])c1cc([N+](=O)[O-])c(O)c([N+](=O)[O-])c1 | inactive: 6.45%
CCOC(=O)c1ccc(NP(C)(=O)Oc2ccc(Cl)cc2)cc1 (centres undefined) | inactive: -7.89%
CP(=O)(OC12CC3CC(CC(C3)C1)C2)OC12CC3CC(CC(C3)C1)C2 | inactive: -6.23%
COc1ccc(OP(C)(=O)Nc2cccc(Br)c2)cc1 (centres undefined) | inactive: 0.22%
CN(C)CCOC(=O)C(O)(c1ccccc1)C1CCCCC1 (centres undefined) | inactive: 3.41%
COc1ccc(NP(C)(=O)Oc2ccccc2OC)cc1 (centres undefined) | inactive: -2.16%
O=[N+]([O-])c1ccc(OP2(=O)COCCO2)cc1 (centres undefined) | inactive: -1.24%
Cc1cc(-c2cccc3ccccc23)c(C)cn1.O=[N+]([O-])c1cc([N+](=O)[O-])c(O)c([N+](=O)[O-])c1 | inactive: -3.52%
O=[N+]([O-])c1cc([N+](=O)[O-])c(NCC2CCS(=O)(=O)C2)c([N+](=O)[O-])c1 (centres undefined) | inactive: 3%
Cc1c(C(c2ccc3c(c2)OCO3)c2c(C)n(C)n(-c3ccccc3)c2=O)c(=O)n(-c2ccccc2)n1C.O=[N+]([O-])c1cc([N+](=O)[O-])c(O)c([N+](=O)[O-])c1 | inactive: -4.77%
CP(=O)(Nc1ccc(SC(F)(F)F)cc1)Oc1ccc(F)cc1 (centres undefined) | inactive: -1.78%
CCOP(C)(=S)SCC(=O)NC(C)(CC)C(=O)O (centres undefined) | inactive: 0.36%
CCOP(=O)(CC)OCC | inactive: 1.53%
CP(=O)(Nc1ccc2c(c1)OCCO2)Oc1ccccc1 (centres undefined) | inactive: -6.64%
Cc1ccccc1NP(C)(=O)Nc1ccccc1C | inactive: -7.14%
O=[N+]([O-])c1cc([N+](=O)[O-])c(C(F)(F)F)c([N+](=O)[O-])c1O | inactive: 8.46%
O=[N+]([O-])c1cc([N+](=O)[O-])c(Nc2ccc(Cl)cc2)c([N+](=O)[O-])c1 | inactive: 6.22%
CP(=O)(Nc1ccccc1F)Oc1ccccc1 (centres undefined) | inactive: -1.9%
CC(C)c1ccc(OP(C)(=O)Nc2ccc(SC(F)(F)F)cc2)cc1 (centres undefined) | inactive: -6.53%
O=C(OC1CN2CCC1CC2)c1ccc([N+](=O)[O-])cc1 (centres undefined) | inactive: 2.9%
O=C(OCCN1CCN(CCOCc2ccccc2)CC1)C(O)(c1ccccc1)c1ccccc1 | inactive: -8.29%
COc1ccc2c(c1O)-c1c(O)c(OC)cc3c1[C@H](C2)[N+](C)(C)CC3.O=[N+]([O-])c1cc([N+](=O)[O-])c([O-])c([N+](=O)[O-])c1[O-] | inactive: -0.13%
CCN(CC)CCCNc1ccccc1[N+](=O)[O-].O=[N+]([O-])c1cc([N+](=O)[O-])c(O)c([N+](=O)[O-])c1 | inactive: 1.88%
CCOC(=O)c1ccc(NP(C)(=O)Oc2ccc(F)cc2)cc1 (centres undefined) | inactive: -6.4%
COc1ccc(OP(C)(=O)Nc2ccc(SC(F)(F)F)cc2)cc1 (centres undefined) | inactive: -10.9%

SMILES | inhibition
Cc1c([N+](=O)[O-])cc([N+](=O)[O-])c(Br)c1[N+](=O)[O-] | inactive: 1.88%
CCN(CC)CCCOC(=O)C(O)(c1ccccc1)C1CCCCC1 (centres undefined) | inactive: -3.98%
CP(=O)(Nc1ccccc1)Oc1ccc(F)cc1 (centres undefined) | inactive: 0.62%
CCCCCOc1ccc(NP(C)(=O)Oc2ccc(Cl)cc2Cl)cc1 (centres undefined) | inactive: -3.09%
O=[N+]([O-])c1cc([N+](=O)[O-])c(OC2CCCCC2O)c([N+](=O)[O-])c1 (centres undefined) | inactive: 1.87%
O=C(O)c1cccc(Nc2c([N+](=O)[O-])cc([N+](=O)[O-])cc2[N+](=O)[O-])c1 | inactive: 0.76%
CC1=NCCc2c1[nH]c1ccccc21.O=[N+]([O-])c1cc([N+](=O)[O-])c(O)c([N+](=O)[O-])c1 | inactive: 1.63%
COc1ccccc1OP(C)(=O)Nc1cccc(Br)c1 (centres undefined) | inactive: -2.36%
CCOC(=O)c1ccc(NP(C)(=O)Oc2cc(C)cc(C)c2)cc1 (centres undefined) | inactive: -6.8%
Cc1cc(C)cc(OP(C)(=O)Nc2ccc(C)cc2C)c1 (centres undefined) | inactive: -6.78%
Cc1ccc(C)c(NP(C)(=O)Oc2ccccc2)c1 (centres undefined) | inactive: -6.31%
CP(=O)(Nc1cccc(Br)c1)Oc1ccccc1 (centres undefined) | inactive: -4.26%
Cc1cc(C)cc(OP(C)(=O)Nc2ccccn2)c1 (centres undefined) | inactive: -5.13%
O=[N+]([O-])c1cc([N+](=O)[O-])c(-n2nnc3ccccc32)c([N+](=O)[O-])c1 | inactive: 0.22%
CN(Cc1cccnc1)C(=O)COc1ccc(Cl)c(Cl)c1.O=[N+]([O-])c1cc([N+](=O)[O-])c(O)c([N+](=O)[O-])c1 | inactive: 1.16%
O=[N+]([O-])c1cc([N+](=O)[O-])c(-c2cnn(-c3ccccc3)c2)c([N+](=O)[O-])c1 | inactive: 1.84%
Cc1nc2ccc3ccccc3c2s1.O=[N+]([O-])c1cc([N+](=O)[O-])c(O)c([N+](=O)[O-])c1 | inactive: 6.32%
O=[N+]([O-])c1cc([N+](=O)[O-])c(Nc2nnnn2CCO)c([N+](=O)[O-])c1 | inactive: 5.85%
CCOC(=O)C(CC)C1=NC(C)(C)Cc2ccccc21.O=[N+]([O-])c1cc([N+](=O)[O-])c(O)c([N+](=O)[O-])c1 (centres undefined) | inactive: -8.19%
COc1ccccc1OP(C)(=O)Nc1c(C)cccc1C (centres undefined) | inactive: -1.98%
CN1CCCCC1COC(=O)C1(O)c2ccccc2CCc2ccccc21 (centres undefined) | inactive: -3.58%
COc1ccc(-c2ccccn2)cc1.O=[N+]([O-])c1cc([N+](=O)[O-])c(O)c([N+](=O)[O-])c1 | inactive: 2.74%
CP(=O)(Nc1ccc(SC(F)(F)F)cc1)Oc1ccccc1 (centres undefined) | inactive: -10.6%
CCCOc1ccc(NP(C)(=O)Oc2ccc(Cl)cc2)cc1 (centres undefined) | inactive: -9.4%
CP(=S)(Nn1cnnc1)Oc1ccccc1 (centres undefined) | inactive: 1.54%

SMILES | inhibition
CP(=O)(Nc1ccccc1Br)Oc1ccccc1 (centres undefined) | inactive: -4.31%
COc1ccccc1OP(C)(=O)Nc1ccccc1 (centres undefined) | inactive: -3.36%
Cc1cccc(C)c1OP(C)(=O)Nc1ccc(SC(F)(F)F)cc1 (centres undefined) | inactive: 0.33%
CP(=O)(Nc1ccc(SC(F)(F)F)cc1)Oc1ccc(Cl)cc1 (centres undefined) | inactive: -4.04%
CP(=O)(Oc1ccccc1)OC(c1ccccc1)C(F)(F)F (centres undefined) | inactive: -7.89%
CCc1ccc(OP(C)(=O)N2CCN(c3ccc([N+](=O)[O-])cc3)CC2)cc1 (centres undefined) | inactive: -6.94%
CP(=O)(NC(=O)Nc1ccccc1)Oc1ccccc1 (centres undefined) | inactive: 1.95%
Cc1cc(C)cc(OP(C)(=O)Nc2ccc(SC(F)(F)F)cc2)c1 (centres undefined) | inactive: -6.95%
CCOC(=O)c1ccc(NP(C)(=O)Oc2ccc(OC)cc2)cc1 (centres undefined) | inactive: -8.58%
O=[N+]([O-])c1cc([N+](=O)[O-])c(O)c([N+](=O)[O-])c1.c1ccc(Oc2ccncc2)cc1 | inactive: 2.48%
CCOP(C)(=S)SCC(=O)NC(C)C(=O)O (centres undefined) | inactive: -1.52%
CP(=O)(Nc1ccccn1)Oc1ccc(Cl)cc1 (centres undefined) | inactive: -1.96%
CCN(CC)CCCOC(=O)C(O)(c1ccccc1)c1ccccc1 | inactive: -1.68%
COc1ccccc1-c1ccccn1.O=[N+]([O-])c1cc([N+](=O)[O-])c(O)c([N+](=O)[O-])c1 | inactive: 0.55%
O=[N+]([O-])c1cc([N+](=O)[O-])c(Nc2cccnc2)c([N+](=O)[O-])c1 | inactive: 4.51%
O=[N+]([O-])c1ccc2c(c1)C=Nc1ccccc1O2 | inactive: 3.96%
CC(C)(C)c1ccc(OP(C)(=O)Nc2ccc(SC(F)(F)F)cc2)cc1 (centres undefined) | inactive: -4.97%
Cc1cccc(C)c1OP(C)(N)=O (centres undefined) | inactive: -1.32%
COc1ccccc1OP(C)(=O)Nc1ccc(C)cc1 (centres undefined) | inactive: 3.77%
Cc1ccc(NP(C)(=O)Oc2ccccc2)c(C)c1 (centres undefined) | inactive: -3.2%
CCOC(=O)c1ccc(NP(C)(=O)Oc2ccccc2)cc1 (centres undefined) | inactive: -5.73%
Cc1cc(C)cc(OP(C)(N)=O)c1 (centres undefined) | inactive: 1.19%
COc1ccccc1OP(C)(=O)Nc1cc(Cl)ccc1C (centres undefined) | inactive: -4.99%
COc1ccc(OP(C)(=O)Nc2cccc(F)c2)cc1 (centres undefined) | inactive: -2.45%
